Values quoted from earlier work as cited in patent US20110105449A1, “DRY POWDER FORMULATIONS COMPRISING ASCORBIC ACID DERIVATES” (ASTRAZENECA R&D, priority 2007, published 2011).

water solubility (in words): highly water-soluble
Substance: salbutamol sulphate [SBS]
